Source: PubChem BioAssay AID836 (Columbia University Molecular Screening Center, 2007)
The entries are a selection whose mix differs from that of the whole data set. Calls of active or inactive are those of the source.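 The calls were made as follows: active = inhibition above the batch mean plus 3 SD and confirmed as a hit by visual image inspection (cut at about 30% in these data, passing the limit was not always enough); inconclusive = above the inhibition threshold but rejected on visual inspection; inactive = the rest.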

Assay: disruptors of actin filament network in HUVEC – imaging, phalloidin staining, high-content imaging, primary screen (AID 836)
Details: HUVEC TNFa F-actin phalloidin imaging, at 2 µM, active compounds read high

SMILES	inhibition
COc1ccccc1OP(C)(=O)Nc1ccc(C)c(C)c1 (stereo not drawn)	inactive: 11.7%
Cc1nc2ccc3ccccc3c2o1.O=[N+]([O-])c1cc([N+](=O)[O-])c(O)c([N+](=O)[O-])c1	inactive: 7.5%
CN(C)CCOC(=O)C(O)(c1ccccc1)C1CCCC1 (stereo not drawn)	inactive: 1.5%
CP(=O)(Nc1ccccn1)Oc1ccccc1 (stereo not drawn)	inactive: 25.1%
COc1ccccc1OP(C)(=O)Nc1ccc(C)cc1C (stereo not drawn)	inactive: -1.4%
CCc1ccc(OP(C)(=O)O)cc1	inactive: 3.4%
Cc1c(NP(C)(=O)Oc2ccc(C(C)C)cc2)c(=O)n(-c2ccccc2)n1C (stereo not drawn)	inactive: 6.7%
COc1ccccc1OP(C)(=O)Nc1c(C)n(C)n(-c2ccccc2)c1=O (stereo not drawn)	inactive: -29.4%
CP(=O)(Oc1ccccc1)N1CCOC1=O (stereo not drawn)	inactive: -13.4%
CCN(CC)CC(O)COC(=O)C(O)(c1ccccc1)C1CCCCC1 (stereo not drawn)	inactive: 29.1%
CC(C)(C)c1ccc(OP(C)(=O)O)cc1	inactive: -2.4%
CP(=O)(Nc1ccc(Cl)cc1)Oc1ccc(F)cc1 (stereo not drawn)	inactive: -8.1%
CP(=O)(OC12CC3CC(CC(C3)C1)C2)OC12CC3CC(CC(C3)C1)C2	inactive: -8.8%
CN(C)CCOC(=O)C(O)(c1ccccc1)C1CCCCC1 (stereo not drawn)	inactive: -5.6%
COc1ccc(OP(C)(=O)Nc2cccc(Br)c2)cc1 (stereo not drawn)	inactive: 8.5%
CCOP(C)(=S)SCC(=O)NC(C)(CC)C(=O)O (stereo not drawn)	inactive: 3.7%
CP(=O)(Nc1ccc2c(c1)OCCO2)Oc1ccccc1 (stereo not drawn)	inactive: 6.6%
CP(=O)(Nc1ccccc1F)Oc1ccccc1 (stereo not drawn)	inactive: 23.8%
CP(=O)(Nc1ccccc1)Oc1ccc(F)cc1 (stereo not drawn)	inactive: 5.8%
CCN(CC)CCCOC(=O)C(O)(c1ccccc1)C1CCCCC1 (stereo not drawn)	inactive: -2.5%
Cc1cc(C)cc(OP(C)(=O)Nc2ccc(C)cc2C)c1 (stereo not drawn)	inactive: 8.9%
Cc1ccc(C)c(NP(C)(=O)Oc2ccccc2)c1 (stereo not drawn)	inactive: -2.1%
Cc1cc(C)cc(OP(C)(=O)Nc2ccccn2)c1 (stereo not drawn)	inactive: -3.4%
Cc1nc2ccc3ccccc3c2s1.O=[N+]([O-])c1cc([N+](=O)[O-])c(O)c([N+](=O)[O-])c1	inactive: -3.3%
COc1ccccc1OP(C)(=O)Nc1c(C)cccc1C (stereo not drawn)	inactive: 28.3%
CP(=S)(Nn1cnnc1)Oc1ccccc1 (stereo not drawn)	inactive: 9.2%
CP(=O)(NC(=O)Nc1ccccc1)Oc1ccccc1 (stereo not drawn)	inactive: 1.5%
CP(=O)(Nc1ccccn1)Oc1ccc(Cl)cc1 (stereo not drawn)	inactive: 1.9%
